The target in test [1] is T1, Glycylpeptide N-tetradecanoyltransferase 1 (Homo sapiens, UniProt P30419).
T1 sequence (P30419 whole entry): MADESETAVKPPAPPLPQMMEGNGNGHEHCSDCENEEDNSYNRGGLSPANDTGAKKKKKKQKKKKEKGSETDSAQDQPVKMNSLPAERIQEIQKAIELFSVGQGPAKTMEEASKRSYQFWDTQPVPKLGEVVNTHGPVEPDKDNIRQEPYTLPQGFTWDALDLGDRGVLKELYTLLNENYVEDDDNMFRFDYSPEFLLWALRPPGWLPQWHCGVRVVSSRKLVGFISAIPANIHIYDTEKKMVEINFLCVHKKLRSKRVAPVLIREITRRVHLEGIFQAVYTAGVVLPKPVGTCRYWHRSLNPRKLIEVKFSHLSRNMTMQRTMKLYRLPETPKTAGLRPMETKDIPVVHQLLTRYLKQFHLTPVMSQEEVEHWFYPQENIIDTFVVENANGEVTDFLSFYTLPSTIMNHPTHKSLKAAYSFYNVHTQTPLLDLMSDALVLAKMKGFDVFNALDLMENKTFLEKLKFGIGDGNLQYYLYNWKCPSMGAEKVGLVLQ
The conditions noted are these: pH 7.4; 25 °C.

The target in test [2] is T2, Glycylpeptide N-tetradecanoyltransferase (Trypanosoma brucei brucei (strain 927/4 GUTat10.1), UniProt Q388H8).
T2 sequence (Q388H8 whole entry): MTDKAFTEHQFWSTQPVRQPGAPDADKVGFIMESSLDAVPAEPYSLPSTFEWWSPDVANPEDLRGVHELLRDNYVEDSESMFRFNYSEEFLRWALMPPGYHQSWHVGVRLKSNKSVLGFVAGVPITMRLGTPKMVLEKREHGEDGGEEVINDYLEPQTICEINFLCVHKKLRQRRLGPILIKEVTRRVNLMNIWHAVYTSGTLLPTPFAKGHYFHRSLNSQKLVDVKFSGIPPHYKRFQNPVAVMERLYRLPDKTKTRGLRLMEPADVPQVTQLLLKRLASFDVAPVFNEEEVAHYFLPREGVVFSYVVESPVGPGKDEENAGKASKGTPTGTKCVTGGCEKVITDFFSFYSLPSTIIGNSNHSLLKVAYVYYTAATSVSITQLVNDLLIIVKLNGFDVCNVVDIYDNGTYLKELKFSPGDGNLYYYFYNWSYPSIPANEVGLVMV
The conditions noted are these: pH 7.4; 25 °C.

In general, IC50 refers to the point on the concentration scale where inhibition reaches its midpoint. Regarding `Cc1nn(C)c(C)c1N[S+](=O)([O-])c1ccc(NCCN2CCN(C)CC2)nc1` [US9156811, DDD85602], the IC50 in test [1] turned out to be 9.5 µM. This counts as single-digit micromolar.

With `Cc1nn(C)c(C)c1N[S+](=O)([O-])c1ccc(NCCC2CCN(C)CC2)nc1` [US9156811, DDD88000], half-maximal inhibition in test [2] (IC50) was put at 0.03 µM.

The values are drawn from BindingDB's records for patent US9156811 (Univeristy of Dundee, 2015).
